From patent US20230108492A1 (ONCOIMMUNE, published 2023)

Target: control Fc
Assay: Biacore (SPR): control Fc in place of CD24Fc, Siglec-10Fc as analyte. The value is printed under the KD line inside the plot; no curve is drawn for the control
Description: To measure the interaction between CD24Fc and Siglec 10, we immobilized CD24Fc onto a CHIP and used Biacore to measure the binding of different concentrations of Siglec-10Fc. […] The interaction between CD24Fc and HMGB1 was confirmed by pull down experiments using CD24Fc-bound protein G beads followed by Western blot with either anti-IgG or anti-HMGB1. […] To determine whether CD24Fc is an agonist of Siglec G, the mouse counterpart of human Siglec 10, we stimulated CD24−/− spleen cells with CD24Fc, control Fc or vehicle (PBS) control for 30 minutes. Siglec G was then immunoprecipitated and probed with anti-phospho-tyrosine or anti-SHP-1.

B1: Siglec-10Fc (Fc fusion, human, UniProt Q96LC7 17-546, looked up)
chain: MDGRFWIRVQESVMVPEGLCISVPCSFSYPRQDWTGSTPAYGYWFKAVTETTKGAPVATNHQSREVEMSTRGRFQLTGDPAKGNCSLVIRDAQMQDESQYFFRVERGSYVRYNFMNDGFFLKVTALTQKPDVYIPETLEPGQPVTVICVFNWAFEECPPPSFSWTGAALSSQGTKPTTSHFSVLSFTPRPQDHNTDLTCHVDFSRKGVSAQRTVRLRVAYAPRDLVISISRDNTPALEPQPQGNVPYLEAQKGQFLRLLCAADSQPPATLSWVLQNRVLSSSHPWGPRPLGLELPGVKAGDSGRYTCRAENRLGSQQRALDLSVQYPPENLRVMVSQANRTVLENLGNGTSLPVLEGQSLCLVCVTHSSPPARLSWTQRGQVLSPSQPSDPGVLELPRVQVEHEGEFTCHARHPLGSQHVSLSLSVHYSPKLLGPSCSWEAEGLHCSCSSQASPAPSLRWWLGEELLEGNSSQDSFEVTPSSAGPWANSSLSLHGGLSSGLRLRCEAWNVHGAQSGSILQLPDKKGLIST
notes: Used as the analyte in Biacore at different concentrations; also called human Siglec 10; not shown: Fc part of Siglec-10Fc
  Kd: 16.2 µM
